{"sequences": {"note": "Protein sequences, listed by entry. Tags and fused reporters are not part of them.", "UniProt P11712, whole entry": "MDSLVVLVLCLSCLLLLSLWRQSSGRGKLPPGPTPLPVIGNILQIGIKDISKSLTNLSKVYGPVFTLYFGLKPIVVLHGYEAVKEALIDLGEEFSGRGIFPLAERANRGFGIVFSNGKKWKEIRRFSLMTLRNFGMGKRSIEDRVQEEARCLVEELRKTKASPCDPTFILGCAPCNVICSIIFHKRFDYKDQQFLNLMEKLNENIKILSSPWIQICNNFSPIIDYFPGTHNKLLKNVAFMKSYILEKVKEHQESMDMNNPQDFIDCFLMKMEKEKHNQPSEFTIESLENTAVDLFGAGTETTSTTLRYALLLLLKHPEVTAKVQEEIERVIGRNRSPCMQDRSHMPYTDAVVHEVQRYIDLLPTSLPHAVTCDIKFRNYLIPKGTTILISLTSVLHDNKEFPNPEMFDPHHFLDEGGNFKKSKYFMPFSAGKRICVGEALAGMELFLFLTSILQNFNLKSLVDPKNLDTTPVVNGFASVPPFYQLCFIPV"}, "source": "paper PMC5761213", "about": "(Journal of Pharmaceutical Analysis, 2014)", "target": "CYP2C9 (Homo sapiens, UniProt P11712)", "test": "Effect of DMSO on CYP activity in human liver microsomes", "format": "in vitro ADME", "data": [{"smiles": "C[S+](C)[O-]", "note": "[DMSO]", "values": [{"measurement": "reduction of metabolite formation", "setting": "0.1% DMSO", "value": "no significant reduction"}, {"measurement": "CYP activity reduced by", "setting": "0.5% DMSO, concentration set for the cocktail assay", "value": 6, "unit": "%"}, {"measurement": "effect of DMSO on CYP activity", "setting": "DMSO up to 1%", "value": "not significantly affected"}]}]}
